From article PMC7738869, “A novel STAT3 inhibitor W2014-S regresses human non-small cell lung cancer xenografts and sensitizes EGFR-TKI acquired resistance” (Theranostics, 2021)

System: pY705-STAT3 and pY1068-EGFR
Test: Western blot of pY705-STAT3 and pY1068-EGFR in PC-9/GR cells
Assay type: cell-based, human
Conditions: W2014-S 1 μM and/or gefitinib 2 μM, 24 h

## COc1cc2ncnc(Nc3ccc(F)c(Cl)c3)c2cc1OCCCN1CCOCC1 [Gefitinib, reference compound]
  level of pY705-STAT3 and pY1068-EGFR: not inhibited
